Experimental data taken from ChEMBL document CHEMBL2331320 (J Med Chem, 2013).

Experiment: cells
Details: Homo sapiens, MDA-MB-435S, 72 h

In order of rising IC50:
1. Cc1cn(-c2cc(NC(=O)c3ccc(C)c(Nc4nccc(-c5cccnc5)n4)c3)cc(C(F)(F)F)c2)cn1 [NILOTINIB]  2660 nM
2. CN1CCN(Cc2cc(NC(=O)c3cccc(C#Cc4cnc5ccnn5c4)c3)cc(C(F)(F)F)c2)CC1  2860 nM
3. Cc1nc(Nc2ncc(C(=O)Nc3c(C)cccc3Cl)s2)cc(N2CCN(CCO)CC2)n1 [DASATINIB]  3900 nM
